For 26 molecules, binding signal results are on record in PMC7723054.

Common to all, as to experiment: FOREST: bead pull-down of RNA structure library v1, barcode microarray; U1A/LIN28A: 20 mM HEPES pH 7.5, 80 mM KCl, 20 mM NaCl, 10% glycerol, 2 mM DTT, 0.1 ug/uL BSA, 4 C; BG4/CIRBP/DHX36: 10 mM Tris-HCl pH 7.5, 100 mM KCl (or LiCl),; high values mean tight binding
One test concerns the target T1, LIN28A (human?, UniProt Q9H9Z2 1-209).
T1 sequence: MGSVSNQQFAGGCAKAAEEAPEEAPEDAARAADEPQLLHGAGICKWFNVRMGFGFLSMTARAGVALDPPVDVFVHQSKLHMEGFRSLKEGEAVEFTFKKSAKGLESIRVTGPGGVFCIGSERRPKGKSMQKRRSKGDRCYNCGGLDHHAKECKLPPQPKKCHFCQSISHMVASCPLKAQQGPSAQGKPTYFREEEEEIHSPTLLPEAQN

The next test deals with T2, CIRBP (Homo sapiens, UniProt Q14011 1-172).
T2 sequence: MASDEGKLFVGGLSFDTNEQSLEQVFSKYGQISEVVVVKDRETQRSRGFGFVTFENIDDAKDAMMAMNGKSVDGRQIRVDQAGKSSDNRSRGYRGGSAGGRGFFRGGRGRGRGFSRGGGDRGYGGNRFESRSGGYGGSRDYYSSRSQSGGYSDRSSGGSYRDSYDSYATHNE

The target of another test is T3, DHX36 (Homo sapiens, UniProt Q9H2U1 1-1008).
T3 sequence: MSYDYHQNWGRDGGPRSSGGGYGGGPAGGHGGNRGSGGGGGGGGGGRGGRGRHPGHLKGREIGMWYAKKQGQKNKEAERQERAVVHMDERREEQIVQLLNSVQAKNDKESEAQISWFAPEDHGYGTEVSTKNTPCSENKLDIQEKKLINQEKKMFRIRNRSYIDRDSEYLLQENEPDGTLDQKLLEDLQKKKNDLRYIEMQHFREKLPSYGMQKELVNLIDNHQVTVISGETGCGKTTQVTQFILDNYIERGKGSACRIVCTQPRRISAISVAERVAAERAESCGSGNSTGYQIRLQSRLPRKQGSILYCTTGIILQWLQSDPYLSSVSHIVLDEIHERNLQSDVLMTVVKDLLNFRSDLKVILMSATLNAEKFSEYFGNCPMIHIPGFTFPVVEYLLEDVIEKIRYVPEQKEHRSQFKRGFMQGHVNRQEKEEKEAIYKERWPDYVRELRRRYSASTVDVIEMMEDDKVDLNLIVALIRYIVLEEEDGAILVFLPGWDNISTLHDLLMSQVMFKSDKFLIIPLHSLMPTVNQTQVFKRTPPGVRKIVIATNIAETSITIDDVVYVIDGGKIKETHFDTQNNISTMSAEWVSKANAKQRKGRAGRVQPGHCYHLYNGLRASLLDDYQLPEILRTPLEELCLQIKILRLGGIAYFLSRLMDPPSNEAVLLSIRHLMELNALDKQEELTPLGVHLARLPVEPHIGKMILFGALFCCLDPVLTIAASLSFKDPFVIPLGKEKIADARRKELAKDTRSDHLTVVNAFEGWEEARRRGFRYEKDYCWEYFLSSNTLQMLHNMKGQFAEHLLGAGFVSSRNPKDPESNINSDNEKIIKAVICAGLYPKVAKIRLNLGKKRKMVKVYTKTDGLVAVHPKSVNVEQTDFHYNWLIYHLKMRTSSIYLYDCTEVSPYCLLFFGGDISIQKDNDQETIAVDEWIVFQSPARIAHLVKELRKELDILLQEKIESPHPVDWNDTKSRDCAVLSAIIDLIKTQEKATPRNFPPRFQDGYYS

This is one part of the list.

B1: hsa-mir-3145 (structured_RNA)
RNA: GGGACAGGUACAGAUAAAGGCAACUACCGGUGUACGAAGUUUCAGCCUCAUUGUUGAAUGGAAUGAGAUGCUGAAGCUUCGUGCAC
B1: the binding signal is -1.14 z-score in the test with LIN28A, 0.257 z-score with CIRBP and -0.0115 z-score with DHX36.

B2: hsa-mir-4804 (structured_RNA)
RNA: GGGAACGGACGCACUAGAAGACCGCUUUGGUGUACGAAGUUUCAGCAGCAAGGUGCGUCGUAUCUUGCUGCUGAAGCUUCGUGCAC
With B2, the binding signal is -1.14 z-score with LIN28A, -0.00665 z-score with CIRBP and -0.155 z-score with DHX36.

B3: hsa-mir-3146 (structured_RNA)
RNA: GGGAACUAAGGAUGCUAGGCAGGGUCUAGGUGUACGAAGUUUCAGCUAUAACUUGAAGAAUUCAAAUAGUCAUGGCUGAAGCUUCGUGCAC
Turning to B3, the results for the binding signal in the test with LIN28A, with CIRBP and with DHX36 were -1.1 z-score, -0.15 z-score and -0.843 z-score, respectively.

B4: hsa-mir-298 (structured_RNA)
RNA: GGGACUAGGGUGCUUGACAAUAUACCCCGGUGUACGAAGUUUCAGCCCAGUGGUUUUCCUUGACUGUGGCUGAAGCUUCGUGCAC
As for B4, the results for the binding signal with LIN28A, in the test with CIRBP and in the test with DHX36 were -1.13 z-score, -2.78 z-score and 0.0667 z-score, respectively.

B5: hsa-mir-1255a (structured_RNA)
RNA: GGGAAGCAUGCGUUUCGCGAGUCUAACCGGUGUACGAAGUUUCAGCGAUUUUUUAGAUUCUAAAGAAACGCUGAAGCUUCGUGCAC
With B5, the binding signal with LIN28A was -1.08 z-score; with CIRBP, -0.51 z-score; in the test with DHX36, -0.959 z-score.

B6: hsa-mir-3124 (structured_RNA)
RNA: GGGAAACGAAAUCGGCUAGUAUAUGGCUGGUGUACGAAGUUUCAGCAAGUCGAUUUCCAAAAGUGACUUGCUGAAGCUUCGUGCAC
With B6, the figures for the binding signal with LIN28A, with CIRBP and in the test with DHX36 were -1.08 z-score, 0.95 z-score and 0.148 z-score, respectively.

B7: hsa-mir-382 (structured_RNA)
RNA: GGGAAAAUGACACUCGGAAGUCGACCCCGGUGUACGAAGUUUCAGCGAUUCGCUUUACUUAUGACGAAUCGCUGAAGCUUCGUGCAC
With B7, the figures for the binding signal with LIN28A, in the test with CIRBP and with DHX36 were -1.13 z-score, -1.51 z-score and -1.11 z-score, respectively.

B8: hsa-mir-4765 (structured_RNA)
RNA: GGGAACAGGGAGCACGAUACCUGUUUCCGGUGUACGAAGUUUCAGCCUCAGCCUGGAAAAAGCUGAGGCUGAAGCUUCGUGCAC
For the molecule B8, the binding signal with LIN28A is -1.13 z-score; with CIRBP, -1.69 z-score; in the test with DHX36 it was 0.913 z-score.

B9: hsa-mir-3691 (structured_RNA)
RNA: GGGACUGGGGCUGCUCGACUUAAACGUAGGUGUACGAAGUUUCAGCCGGUACCCACUGCUGAGGGUGGGGACCAGCUGAAGCUUCGUGCAC
Take B9: the binding signal with LIN28A was -1.12 z-score; in the test with CIRBP, -1.51 z-score; with DHX36, -0.23 z-score.

B10: hsa-mir-133a-2 (structured_RNA)
RNA: GGGAACGCAUGCUGGAAACUUAGCGUCAGGUGUACGAAGUUUCAGCCAAAUCGACUGUCCAAUGGAUUUGGCUGAAGCUUCGUGCAC
In the case of B10, the binding signal with LIN28A was -1.12 z-score; with CIRBP it was -0.264 z-score; with DHX36, 0.0657 z-score.

B11: hsa-mir-6128 (structured_RNA)
RNA: GGGACGCCUACACCUGAGAUUGGUUGCUGGUGUACGAAGUUUCAGCCAUGAUUUGGAAAAAUUACUGGCUGAAGCUUCGUGCAC
With B11, the results for the binding signal with LIN28A, with CIRBP and in the test with DHX36 were -1.09 z-score, -1.18 z-score and -0.367 z-score, respectively.

B12: hsa-mir-6073 (structured_RNA)
RNA: GGGAAGAACCGUCAGCUGGGCUCAAAUGGGUGUACGAAGUUUCAGCUGCCUCUCGGGGUGCUGAAGCUUCGUGCAC
On to B12, for which the figures for the binding signal with LIN28A, with CIRBP and in the test with DHX36 were -1.13 z-score, -0.14 z-score and -0.265 z-score, respectively.

B13: hsa-mir-4662b (structured_RNA)
RNA: GGGAUAUACCUACGCAGGCCCGCUGAAUGGUGUACGAAGUUUCAGCCUUUAGGCAUUCAGAAUAGCUAAAGGCUGAAGCUUCGUGCAC
Take B13: the binding signal is -1.11 z-score with LIN28A, -1.77 z-score in the test with CIRBP and -1.88 z-score with DHX36.

B14: hsa-mir-371a (structured_RNA)
RNA: GGGAAAUUAGGUCGAGCAACGUCACUUUGGUGUACGAAGUUUCAGCCACUUUCUGCUCUCUGGUGAAAGUGGCUGAAGCUUCGUGCAC
In the case of B14, the binding signal in the test with LIN28A was -1.13 z-score; with CIRBP, 0.229 z-score; with DHX36, -0.493 z-score.

B15: hsa-mir-4269 (structured_RNA)
RNA: GGGAGUGGUUGCAUGACUCACCAUUCACGGUGUACGAAGUUUCAGCUGGCUUCUGCCUCUUUCUUUGUGGAAGCCAGCUGAAGCUUCGUGCAC
As to B15, the values for the binding signal with LIN28A, with CIRBP and in the test with DHX36 were -1.12 z-score, -2.43 z-score and -0.222 z-score, respectively.

B16: hsa-mir-4287 (structured_RNA)
RNA: GGGCAUUAUCUUGCGAAUGCGGUGAGCCGGUGUACGAAGUUUCAGCUUUUCAGUUCCUGAGAUCGCUGAAGCUUCGUGCAC
Regarding B16, the binding signal with LIN28A is -1.09 z-score; with CIRBP it was 0.261 z-score; in the test with DHX36 it was -1.15 z-score.

B17: hsa-mir-924 (structured_RNA)
RNA: GGGAACGGGAACUAGUGUUGCUCCUUGAGGUGUACGAAGUUUCAGCUUGCUUAAGGCUGAAGCUUCGUGCAC
On to B17, for which the binding signal was -1.15 z-score with LIN28A, -0.314 z-score with CIRBP and -0.315 z-score with DHX36.

B18: hsa-mir-485 (structured_RNA)
RNA: GGGACCGAAAGGAGAGCAGUAAUCUGAUGGUGUACGAAGUUUCAGCGAAUUCGAUUCAUCAAAGCGAGUCGCUGAAGCUUCGUGCAC
With B18, the figures for the binding signal with LIN28A, in the test with CIRBP and with DHX36 were -1.09 z-score, 0.558 z-score and -1.01 z-score, respectively.

B19: hsa-mir-582 (structured_RNA)
RNA: GGGAAUACACCCGGCAAAUGCUGUUCCGGGUGUACGAAGUUUCAGCGUUACUAAUCUAACUAAUUGUAACGCUGAAGCUUCGUGCAC
B19: the results for the binding signal in the test with LIN28A, with CIRBP and in the test with DHX36 were -1.09 z-score, 0.441 z-score and -0.0203 z-score, respectively.

B20: NEAT1_ParasoR_ID20 (structured_RNA)
RNA: GGGAACAACUCAGACGAGGCGUGAUUUUGGUGUACGAAGUUUCAGCGAUUUGCAUUUCUCUGAUGAGUGAUGCUAUCGCUGAAGCUUCGUGCAC
Take B20: the binding signal in the test with LIN28A was -1.08 z-score; with CIRBP it was -0.24 z-score; with DHX36 it was -0.854 z-score.

B21: hsa-mir-522 (structured_RNA)
RNA: GGGAUUAAAAGUGCCUUGCGGACUCCAUGGUGUACGAAGUUUCAGCCUUUCUGUUGUCUGAAAGAAAAGAAAAGCUGAAGCUUCGUGCAC
As to B21, the figures for the binding signal with LIN28A, with CIRBP and with DHX36 were -1.1 z-score, -0.773 z-score and -1.55 z-score, respectively.

B22: hsa-mir-4527 (structured_RNA)
RNA: GGGAACCCCUGCGCCUGUAAAGUCAAACGGUGUACGAAGUUUCAGCCUGUGAAUCCAAGAUCCACAGCUGAAGCUUCGUGCAC
Turning to B22, the binding signal with LIN28A was -1.08 z-score; with CIRBP it was -0.404 z-score; in the test with DHX36 it was -0.579 z-score.

B23: hsa-mir-6716 (structured_RNA)
RNA: GGGAAGGCUAUCGGAGUCCCUUGUGGUCGGUGUACGAAGUUUCAGCAGGGCCUUCUGAGCCCAGGUCCGGCUGAAGCUUCGUGCAC
On to B23, for which the binding signal is -1.09 z-score with LIN28A, 0.00644 z-score in the test with CIRBP and -0.277 z-score with DHX36.

B24: hsa-mir-4710 (structured_RNA)
RNA: GGGAGGUUACUAGGCAAGCGCUAACUUUGGUGUACGAAGUUUCAGCGGUUCUUCCCGAAGCGCUGAAGCUUCGUGCAC
With B24, the binding signal with LIN28A is -1.15 z-score; with CIRBP it was 0.0718 z-score; with DHX36, -0.361 z-score.

B25: hsa-mir-937 (structured_RNA)
RNA: GGGAGAACGACAGUGCGCACUGGAAAACGGUGUACGAAGUUUCAGCGGCUGGCCCCCUGCUUCGUGCCCAUCCGCUGAAGCUUCGUGCAC
In the case of B25, the results for the binding signal with LIN28A, with CIRBP and with DHX36 were -1.07 z-score, -0.629 z-score and 0.419 z-score, respectively.

B26: hsa-mir-320c-1 (structured_RNA)
RNA: GGGAUGGGAGGGCGAAGUUCCAUAAGAGGGUGUACGAAGUUUCAGCUCUUCCCAGAGUCAGGAAAAGCUGAAGCUUCGUGCAC
Turning to B26, the binding signal with LIN28A is -1.13 z-score; with CIRBP it was -0.787 z-score; with DHX36 it was -0.16 z-score.
